The text below walks through data of publication PMC11181328 (Journal of Medicinal Chemistry, 2024).

Structures are written as SMILES. Where a name gives a salt, the structure may show the parent alone.

In assay [1] the target is T1, KOR (Mus musculus, UniProt P33534).
T1 construct: expressed in transfected cells; membrane homogenate
Put plainly: Competitive radioligand binding assay, KOR. The note with it: ratio of Ki values.

The target of assay [2] is T1, KOR. Put plainly: [35S]-GTPγS functional assay, KOR. Format: biochemical. As to conditions: percent of U50,488 full agonist control. (GTPγS resists hydrolysis and so accumulates on activated G proteins.)
The next assay deals with T2, DOR (Homo sapiens, UniProt P41143).
T2 construct: expressed in transfected cells; membrane homogenate
Put plainly: [35S]-GTPγS functional assay, DOR. Format: biochemical. The note with it: percent of SNC80 full agonist control.

In the next assay the target is MOR (Mus musculus, UniProt P42866). Put plainly: [35S]-GTPγS functional assay, MOR. The note with it: read-out: [35S]-GTPγS functional activity MOR Emax (%). Format: biochemical. Also noted: expressed in transfected cells; membrane homogenate.

As for `O=C(/C=C/c1ccco1)N[C@H]1CC[C@@]2(O)[C@H]3Cc4ccc(O)c5c4[C@@]2(CCN3CC2CC2)[C@H]1O5` [Compound 22, 17-Cyclopropylmethyl-3,14β-dihydroxy-4,5α-epoxy-6α-[(2E)-3′-(furan-2″-yl)prop-2-enamido]morphinan Hydrochloride], the “selectivity ratio δ/κ” value on KOR [1] was 8. In addition, the Emax was determined as 89.6 ± 7.25% on KOR [2], 61 ± 2.21% on DOR and 12.7 ± 1.05% on MOR.
For `CN(C(=O)CCc1ccco1)[C@@H]1CC[C@@]2(O)[C@H]3Cc4ccc(O)c5c4[C@@]2(CCN3CC2CC2)[C@H]1O5` [Compound 15, 17-Cyclopropylmethyl-3,14β-dihydroxy-4,5α-epoxy-6β-[3′-(furan-2″-yl)-N-methylpropanamido]morphinan Hydrochloride], at KOR [1], the “selectivity ratio δ/κ” value worked out at 23 and the “selectivity ratio μ/κ” value was found to be 2.
Take `Cl.O=C(CCc1ccco1)N[C@H]1CC[C@@]2(O)[C@H]3Cc4ccc(O)c5c4[C@@]2(CCN3CC2CC2)[C@H]1O5` [Compound 14, 17-Cyclopropylmethyl-3,14β-dihydroxy-4,5α-epoxy-6α-[3′-(furan-2″-yl)propanamido]morphinan Hydrochloride]: the Emax at KOR [2] came out at 80.8 ± 3.02%; at DOR, 75.2 ± 2.46%.
Turning to `O=C(/C=C/c1ccco1)N[C@@H]1CC[C@@]2(O)[C@H]3Cc4ccc(O)c5c4[C@@]2(CCN3CC2CC2)[C@H]1O5` [Compound 24, 17-Cyclopropylmethyl-3,14β-dihydroxy-4,5α-epoxy-6β-[(2E)-3′-(furan-2″-yl)prop-2-enamido]morphinan Hydrochloride], the values for the maximal effect (Emax) at KOR [2], on DOR and on MOR were 98.53 ± 0.6%, 42.8 ± 4.01% and 7.33 ± 0.65%, respectively.
For `CN(C(=O)CCc1ccoc1)[C@@H]1CC[C@@]2(O)[C@H]3Cc4ccc(O)c5c4[C@@]2(CCN3CC2CC2)[C@H]1O5` [Compound 7, 17-Cyclopropylmethyl-3,14β-dihydroxy-4,5α-epoxy-6β-[3′-(furan-3″-yl)-N-methylpropanamido]morphinan Hydrochloride], on KOR [1], the “selectivity ratio δ/κ” value stood at 30 and the “selectivity ratio μ/κ” value turned out to be 2.
The corresponding values for `CN(C(=O)CCc1ccco1)[C@H]1CC[C@@]2(O)[C@H]3Cc4ccc(O)c5c4[C@@]2(CCN3CC2CC2)[C@H]1O5` [Compound 13, 17-Cyclopropylmethyl-3,14β-dihydroxy-4,5α-epoxy-6α-[3′-(furan-2″-yl)-N-methylpropanamido]morphinan Hydrochloride] are 3 and 1.
As to `Cl.O=C(CCc1ccco1)N[C@@H]1CC[C@@]2(O)[C@H]3Cc4ccc(O)c5c4[C@@]2(CCN3CC2CC2)[C@H]1O5` [Compound 16, 17-Cyclopropylmethyl-3,14β-dihydroxy-4,5α-epoxy-6β-[3′-(furan-2″-yl)propanamido]morphinan Hydrochloride], the Emax on KOR [2] turned out to be 93.7 ± 1.01%; on DOR it was 40.9 ± 2.33%.

By Emax is commonly meant the greatest response seen or fitted, relative to the assay's reference.
